Laboratory results taken from patent publication US12233105B1, “Methods for storing and warming purified corticotropin compositions” (ANI Pharmaceuticals, Inc., priority 2022, dated 2025).

Tested on: THP-1 Blue, Raw Blue, HEK-blue hTLR3, HEK-Blue hTLR4, HEK-Blue hNOD2
Test: Innate immune response activation assays in TLR/NOD2 reporter cell lines
Assay type: cell-based
Settings: 5 cell lines covering TLR and NOD2 expression; 3 PPQ lots; highest drug substance concentration tested 10 μg/mL
Method: Method development, qualification, and testing for activation of innate immune response was performed. The innate immune assays performed compared 3 PPQ lots. The work was conducted using 5 cell lines to cover TLR and NOD2 expression (THP-1 Blue, Raw Blue, HEK-blue hTLR3, HEK-Blue hTLR4, HEK-Blue hNOD2). Positive control ligands Poly (I: C) HMW, LPS-EK, FSL-1, CL075 and MDP were included in each assay. […] The highest drug substance concentration tested was 10 μg/mL. A dose of the sterile preparation of purified corticotropin at 80 U is, equivalent to approximately 1 mg of drug substance per total body weight of subject.

FSL-1
dose response for activation of innate immune response: robust dose responses
